Reference: patent publication US11779597B2, “Method of treating Parkinson's and other neurodegenerative diseases” (Vector Vitale IP LLC, priority 2019, dated 2023)

Legend:
Type in all cases: in vivo
[1] = test system: dopaminergic neurons in the black substance in rat models of Parkinson's disease (6-OHDA); assay: Apomorphine test / destruction of dopaminergic neurons after prophylactic administration; settings: 6-OHDA rat models
Experimental: (§1) Methods: Adult mature rodents were used in the study. […] Before prophylactic administration of the experimental drugs, the animals underwent an open field test to assay their general locomotor activity levels and anxiety. The prophylactic course consisted of 10 daily intraperitoneal injections of the drugs (in the case of combination drug, its components were administered at an interval of 2 hours). After the end of prophylactic course, Parkinson's disease was modelled in the animals. […] Ten days after the last (second) apomorphine test, the animals' behavioral responses were assessed in the open field test followed by euthanasia and analysis of functional (metabolic and phenotypic) profiles of phagocytes of different localization. Thus, the study of the functional profile of phagocytes in rat models of Parkinson's disease was performed on day 28 after the end of the course of prophylactic treatment with the experimental drugs. […] Functional characteristics of circulating phagocytes (monocytes and neutrophils) were evaluated in whole blood taken into a tube containing EDTA used as an anticoagulant. Mononuclear and polymorphonuclear phagocytes were analyzed on a flow cytofluorimeter using a gating method. […] The hemogram parameters were analyzed on the hematological analyzer Particle counter model PCE 210 (ERMA, Japan) adapted for the study of blood cells of rats and mice.

microglia = assay: Functional profile of microglia in 6-OHDA rat models after prophylactic administration; settings: prophylactic i.p.
Experimental: as §1

[2] = test system: TH-positive neurons in the midbrain; assay: Immunohistochemical identification of TH-positive neurons; settings: LPS rat models, versus LPS models administered water
circulating leukocytes = assay: Blood count values in LPS rat models
Experimental: (§2) On the 1st day of the experiment, rats were either operated to model hemi-parkinsonism or sham operated. From the 9th to the 18th day of the experiment, the animals were injected either deuterium-depleted water or the test substance, according to their allocation into groups, for 10 days. On the 8th day of the experiment (before initiation of treatment—apomorphine test I) and on the 21st day of the experiment (after the end of administering the test substance —apomorphine test II) the animals underwent an apomorphine test to analyze the development of hemi-parkinsonism which correlates with the number of destroyed dopaminergic neurons. In addition, a follow-up analysis of fecal water content was carried out, i.e., before the start of treatment on the 8th day after the operation, as well as on the 21st (after the end of treatment) and the 28th day (before autopsy). On the 24th day of the experiment, behavioral tests were carried out in all groups. All animals were weighed before autopsy. […]
The blood count values were analyzed at the completion of the experiment (day 28). The absolute number of leukocytes, as well as the absolute and relative numbers of lymphocytes, monocytes and neutrophilic granulocytes were calculated.

[3] = test system: circulating monocytes and granulocytes; assay: Functional and phenotypic properties of circulating phagocytes in LPS rat models; settings: animal models of PD
Experimental: as §2, with “autopsy).” for “autopsy). On the 24th day of the experiment, behavioral tests were carried out in all groups. All animals were weighed before autopsy.”
To assess the anti-inflammatory and immunomodulating effects of the test substance, microglia and peritoneal macrophages were isolated. Phenotypic and functional features of peripheral blood phagocytes were evaluated without their fractioning (using whole blood). […]
Phagocytic activity of microglia, peritoneal macrophages and peripheral blood phagocytes was analyzed on a flow cytometer using FITC-labeled S. aureus Wood 46 cells as an object of phagocytosis. […]

^64Zn-enriched zinc aspartate [^64Zne-asp]
rate of rotational movements in the control relative to treated animals with 100% destruction [1]: 2.2 times
relative number of CD14+ cells in microglia (microglia): decrease
relative number of CD206+ cells in microglia (microglia): significant increase
number of TH-positive neurons in the midbrain ([2]; listed as 64Zn-asp): significant increase
number of TH-positive neurons in the midbrain ([2]; listed as zinc preparation): statistically significant increase
neutrophil-to-lymphocyte ratio (circulating leukocytes): normalization
peripheral inflammation (relative number of leukocytes) (circulating leukocytes): reduced
relative number of circulating monocytes (phagocytic cells) [3]: slight decrease
relative number of phagocytic granulocytes (granulocyte index) [3]: did not produce any effect
